The source of these data is US6187782A, “Morphinane derivatives and medicinal use thereof” (dated 2001).

The test system of assay [1] is opioid ε-receptor. The note with it: concentration of added compound at which the inhibitory effect reached plateau.
Assay [2] concerns ddy mice. Put plainly: Analgesic Activity Test Using the Acetic Acid-induced Writhing Method. Particulars: subcutaneous, 15 minutes before acetic acid (0.6% i.p.); ddy mice 5 weeks old.
Assay [3] has as its system ddy mice. Put plainly: Analgesic Activity Test Using the Hot Plate Method. Particulars: subcutaneous, 30 minutes before measuring; cut-off 30 seconds; ddy mice 5 weeks old.
The subject of assay [4] is opioid ε-receptor. The note with it: read-out: Ke Value; Ke=[Concentration of Antagonist Added]/(DR-1); β-endorphin as agonist, about 15 minutes after addition of test compound.

As to `CN(CCc1ccccc1)C(=O)[C@H]1C[C@@]23CC[C@]1(O)[C@@H]1Oc4c(O)ccc5c4[C@@]12CCN(CC1CC1)[C@@H]3C5`, in the assay on opioid ε-receptor [1], the “Concentration of Compound” value was 2.2 µM.
In the case of `O=C(NCCc1ccccc1)[C@H]1C[C@@]23C=C[C@]1(O)[C@@H]1Oc4c(O)ccc5c4[C@@]12CCN(CC1CC1)[C@@H]3C5`, in the assay with ddy mice [2], the “ED50 Value (analgesic activity, acetic acid writhing)” value came to 238.8 μg/kg body weight. The “Concentration of Compound” value with opioid ε-receptor [1] was determined as 2.5 µM. The “ED50 of the analgesic activity (hot plate)” value in the assay on ddy mice [3] amounted to 2.64 mg/kg body weight.
As for `C=CCNC(=O)[C@H]1C[C@@]23C=C[C@]1(O)[C@@H]1Oc4c(O)ccc5c4[C@@]12CCN(CC1CC1)[C@@H]3C5`, the Kb in the assay on opioid ε-receptor [4] was 1.7 nM.
On the same count and under the same terms, next, `O=C(NCc1ccccc1)[C@H]1C[C@@]23C=C[C@]1(O)[C@@H]1Oc4c(O)ccc5c4[C@@]12CCN(CC1CC1)[C@@H]3C5`: 0.56 nM; `CO[C@]12C=C[C@@]3(C[C@H]1NC(=O)CCCCc1ccccc1)[C@H]1Cc4ccc(O)c5c4[C@@]3(CCN1CC1CC1)[C@H]2O5`: 0.18 nM; `O=C(NCCc1ccccc1)[C@@H]1C[C@@]23C=C[C@]1(O)[C@@H]1Oc4c(O)ccc5c4[C@@]12CCN(CC1CC1)[C@@H]3C5`: 0.83 nM.
The same measure, in the same setting: next, `O=C(NCCCCc1ccccc1)[C@H]1C[C@@]23C=C[C@]1(O)[C@@H]1Oc4c(O)ccc5c4[C@@]12CCN(CC1CC1)[C@@H]3C5`: 0.51 nM; `O=C(NCCCCc1ccccc1)[C@@H]1C[C@@]23C=C[C@]1(O)[C@@H]1Oc4c(O)ccc5c4[C@@]12CCN(CC1CC1)[C@@H]3C5`: 0.41 nM.
On to `CN(CCc1ccccc1)C(=O)[C@H]1C[C@@]23C=C[C@]1(O)[C@@H]1Oc4c(O)ccc5c4[C@@]12CCN(CC1CC1)[C@@H]3C5`, for which the “ED50 Value (analgesic activity, acetic acid writhing)” value with ddy mice [2] amounted to 17.7 μg/kg body weight. The “Concentration of Compound” value in the assay with opioid ε-receptor [1] amounted to 1.0 µM.
Consider `CO[C@]12C=C[C@@]3(C[C@@H]1NC(=O)CCCCc1ccccc1)[C@H]1Cc4ccc(O)c5c4[C@@]3(CCN1CC1CC1)[C@H]2O5`, for which, in the assay with opioid ε-receptor [4], the Kb amounted to 0.83 nM.
In the case of `CN(CCc1ccccc1)C(=O)[C@H]1C[C@@]23C=C[C@]1(O)[C@@H]1Oc4c(O)ccc5c4[C@@]12CCN(CCc1ccccc1)[C@@H]3C5`, the “Concentration of Compound” value in the assay with opioid ε-receptor [1] is 1.0 µM.
For the compound `O=C(NCCCc1ccccc1)[C@H]1C[C@@]23C=C[C@]1(O)[C@@H]1Oc4c(O)ccc5c4[C@@]12CCN(CC1CC1)[C@@H]3C5`, in the assay on opioid ε-receptor [4], the Kb stood at 0.71 nM.
